Screening results: PubChem, ICCB-Longwood Screening Facility, Harvard Medical School
GIV Gai3 FP: inhibitors of GIV peptide binding to Galpha-i3, primary screen, biochemical, fluorescence polarization, FITC-GIV GBA peptide, rat Galphai3 | 90 min; hits give low values; scaled: aluminum fluoride 0%, vehicle 100% | percent of control (FP), % (concentration not given with the values) | 210,000 compounds, 0.42% hits | AID 1224905, 2016;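 active = replicate mean at 85% of control or lower, very high polarization wells dropped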;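 also: wells of about 15 µL received 100 nL stock; the first replicate is given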
HCMV NEC inh: inhibitors of HCMV UL50-UL53 nuclear egress complex interaction. hit rate 0.15% among 190,000. inhibition, % (no concentration beside the values). HTRF UL50-UL53 interaction, normalized percent inhibition; in the data active means inhibition above about 27%, passing the limit was not always enough
GIV Gai FP conf: GIV-Galpha-i3 inhibition, FP confirmation; shares compounds with GIV Gai3 FP; FITC-GIV peptide binding to Galphai3, fluorescence polarization; hits give low values; fluorescence polarization, mP at 100 µM; hit rate 38% among 580; AID 1259350;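 active means inhibition score of 15 or more, meaning 100 minus mean polarization as percent of control over three replicates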;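 further: lower mP means peptide displaced from Galphai3 so more inhibition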
GIV Gai AS conf: GIV-Galpha-i3 inhibition, AlphaScreen confirmation | AlphaScreen counts at 100 µM | AlphaScreen Galphai3-GIV binding, purified proteins, 90 min; hits give low values | hit rate 39% among 580 | AID 1259351 | shares compounds with GIV Gai3 FP;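 active means inhibition score at or above a set limit, where the score is 100 minus the three-replicate mean percent of control signal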
Numbers stand for hits; - = inactive; . = no result given. The list is not random: actives were taken first. Their share in the collection is about 0.43%.

SMILES	GIV Gai3 FP	HCMV NEC inh	GIV Gai FP conf	GIV Gai AS conf
Cc1cc(C)nc(NC(c2cccc(F)c2)c2cc(C)sc2NC(=O)c2ccccc2)n1 (stereo not drawn)	69	-	-	-
Cc1cc(C)nc(NC(c2ccccc2)c2cc(C)sc2NC(=O)c2ccccc2)n1 (stereo not drawn)	-	-	.	.
Cc1ccsc1-c1nc(-c2cc3c(C)nn(-c4ccccc4)c3s2)no1	41	-	-	-
Cc1nc(C)c(-c2nc(-c3cc4c(C)nn(-c5ccccc5)c4s3)no2)s1	-	-	.	.
O=C(/C=C/c1ccco1)OCC(=O)N1CCCc2ccccc21	.	-	.	.
O=[N+]([O-])c1ccc(N2CCCCC2)cc1Sc1nc2ccccc2[nH]1	-	.	-	-
O=[N+]([O-])c1ccc(NCCCO)cc1Sc1nc2ccccc2[nH]1	-	.	.	.
C#C[C@@]1(O)CC[C@H]2[C@@H]3CCc4cc(OC)ccc4[C@@H]3CC[C@@]21C	.	-	.	.
COc1ccc(C(=O)CSc2nnc(-c3ccco3)c(-c3ccco3)n2)cc1	-	.	.	.
O=C(CSc1nnc(-c2ccco2)c(-c2ccco2)n1)Nc1ccc(C(=O)O)cc1	77	-	60	2995
COc1cc(C2C(N3C(=O)c4ccc([N+](=O)[O-])cc4C3=O)C(=O)N2c2ccc(Cl)c(Cl)c2)cc(OC)c1OC (stereo not drawn)	-	.	.	.
COc1ccc(-c2csc(C(C#N)=C3CCCCC3)n2)cc1	.	-	.	.
Cc1c(/C=N/N=c2\sc3ccccc3n2C)n(C)n(-c2ccccc2)c1=O	.	-	.	.
CN(C)c1ccc(/C=C/C=N/N=c2/sc3ccccc3n2C)cc1	-	-	-	-
Cc1nc(Nc2ccc(NC(=O)Nc3ccc(C)c(C)c3)cc2)cc(N(C)C)n1	-	-	.	.
COc1ccc(-c2c(-c3ccc(OC)c(OC)c3)c(C)n(C)c2C)cc1OC	-	-	.	.
COc1ccc(-n2ccc(=O)c(-c3nc(-c4ccc(F)cc4)no3)n2)cc1	-	.	.	.
Cn1nc(-c2ccc(F)cc2)nc2c(=O)n(C)c(=O)nc1-2	15	83	28	-
COc1ccc(-c2nc3c(=O)n(C)c(=O)nc-3n(C)n2)cc1OC	57	-	42	27053
CCC(C)C(NC(=O)C(CC(C)C)NC(=O)OCc1ccccc1)C(=O)NN1S(=O)(=O)c2ccccc2S1(=O)=O (stereo not drawn)	-	.	.	.
O=C(O)CC(NCc1ccco1)C(=O)Nc1ccc(Cl)cc1 (stereo not drawn)	-	-	.	.
O=C(NCc1ccc2c(c1)OCO2)c1cccnc1SCc1ccccc1Cl	-	.	.	.
CC(C)NC(=O)CCn1cnc2onc(-c3cccc(F)c3)c2c1=O	-	-	.	.
COC(=O)CCn1cnc2onc(-c3cc(F)cc(F)c3)c2c1=O	71	-	-	-
Cn1c(=O)c2nc3ccc(NC(=O)C(F)(F)F)cc3nc2n(C)c1=O	79	-	-	-
SMILES	GIV Gai3 FP	HCMV NEC inh	GIV Gai FP conf	GIV Gai AS conf
Cc1cc2nc3c(=O)n(C)c(=O)n(C)c3nc2cc1N	-	.	.	.
NNC(=O)c1ccc(CS(=O)(=O)c2ccccc2)o1	.	-	.	.
O=C(O)c1ccc(CS(=O)(=O)c2ccccc2)o1	77	.	-	2163
O=C(Nc1ccc(N2CCOCC2)c2nonc12)c1ccco1	-	-	.	.
Nc1ccc(N2CCOCC2)c2nonc12	63	-	46	2710
O=C(O)c1cccc(N2C(=O)/C(=C/c3ccccc3)SC2=S)c1	.	-	.	.
Cc1ccc(/C=C2\SC(=S)N(C(CCC(=O)O)C(=O)O)C2=O)cc1 (stereo not drawn)	.	-	.	.
O=C(O)CCC(C(=O)O)N1C(=O)/C(=C/C=C/c2ccco2)SC1=S (stereo not drawn)	39	75	47	2132
CC(C(=O)O)N1C(=O)/C(=C\c2ccco2)SC1=S (stereo not drawn)	.	-	.	.
Cc1ccc(/C=C2\SC(=S)N(C(C(=O)O)C(C)C)C2=O)cc1 (stereo not drawn)	-	.	.	.
O=C(O)c1cccc(N2C(=O)/C(=C\C=C\c3ccco3)SC2=S)c1	74	-	-	-
CC(C(=O)O)N1C(=O)/C(=C/c2ccco2)SC1=S (stereo not drawn)	75	-	55	3227
CC(C)C(C(=O)O)N1C(=O)/C(=C/C=C/c2ccco2)SC1=S (stereo not drawn)	58	82	54	1448
CN(CC(=O)N1CCCC1)S(=O)(=O)c1ccc(F)cc1	-	-	.	.
N#CCOC(=O)c1ccc(Br)o1	.	-	.	.
CCOc1ccc2nc(Cl)c(CN(Cc3ccco3)C(=O)N(C)C)cc2c1	-	-	.	.
C=CCSc1ncc(Cl)c(C(=O)Nc2sc3c(c2C(=O)OC)CCC3)n1	-	-	.	.
C=CCSc1ncc(Cl)c(C(=O)Nc2sc3c(c2C(=O)OC)CCCC3)n1	85	-	-	-
OC(CN1CCOCC1)C(F)(F)F (stereo not drawn)	-	-	.	.
O=C(Nc1ccc(-c2nc3ccccc3o2)cc1)c1ccc(Br)o1	-	-	.	.
O=C(Nc1cc(-c2nc3ccccc3o2)ccc1Cl)c1ccc(Br)o1	69	-	-	-
Cc1cc(C)c2oc(-c3cccc(NC(=O)c4ccco4)c3)nc2c1	-	-	.	.
Cc1cc(C)c2oc(-c3cccc(NC(=O)c4ccc(Br)o4)c3)nc2c1	-	-	-	-
Cc1ccc(-c2nc3cccnc3n2CCCNC(=O)C(C)C)cc1	-	-	.	.
CCC1Oc2ccc(S(=O)(=O)N3CCN(C(=O)c4cncc(Br)c4)CC3)cc2NC1=O (stereo not drawn)	-	-	.	.
SMILES	GIV Gai3 FP	HCMV NEC inh	GIV Gai FP conf	GIV Gai AS conf
COc1ccc(C2C3=C(CC(c4ccco4)CC3=O)Nc3ccccc3N2C(=O)C(F)(F)F)cc1OC (stereo not drawn)	-	-	.	.
COCCn1c(C)cc(C=C2C(=O)NC(=O)NC2=O)c1C	-	-	.	.
COCCn1c(C)cc(C=C2C(=O)N(C)C(=S)N(C)C2=O)c1C	-	.	-	21525
CC1=NN(c2ccccc2)C(=O)/C1=C1/C(=O)N(c2ccccc2)N=C1C	61	106	53	17646
CC1=NN(c2ccccc2)C(=O)C1=C1SCCS1	-	-	.	.
Cc1cccc(NC(=O)c2sc3nc(-c4cccs4)cc(C(F)(F)F)c3c2N)n1	-	.	.	.
Nc1c(C(=O)Nc2ccccn2)sc2nc(-c3cccs3)cc(C(F)(F)F)c12	43	.	-	-
O=C(Nc1cccc(Cl)c1)N1Cc2ccccc2C(N2CCOCC2)c2ccccc21 (stereo not drawn)	-	-	.	.
O=C(CSc1nnc2c3sc(N4CCCC4)nc3ncn12)Nc1ccccc1	81	.	-	-
COc1ccc(NC(=O)CSc2nnc3c4sc(N5CCCC5)nc4ncn23)cc1	-	.	.	.
O=S1(=O)c2cccc3cccc(c23)N1Cc1ccccc1F	-	-	.	.
CCN1CCN(CCNC(=O)c2oc(=O)c3ccccc3c2-c2ccc(C)cc2)CC1	-	.	.	.
COC(=O)Cc1c(C)c2cc3c(c(C)c2oc1=O)OCN(CCc1ccc(OC)cc1)C3	-	-	.	.
CCc1c(C)c2cc3c(c(C)c2oc1=O)OCN(CCc1ccc(OC)c(OC)c1)C3	83	-	-	14061
COc1ccccc1-n1c(CNC(=O)c2cccc([N+](=O)[O-])c2C)nnc1SCC(=O)N1CCc2ccccc21	-	.	.	.
C#CCN1C(=O)C(O)(C(C)C(=O)c2ccccc2)c2ccccc21 (stereo not drawn)	-	.	.	.
